biological target: Histamine H1 receptor (Homo sapiens, UniProt P35367); experiment: biochemical; format: cell-based, CHO-K1

The chains behind the UniProt entries cited, without tags or fusion partners.
UniProt P35367, whole entry: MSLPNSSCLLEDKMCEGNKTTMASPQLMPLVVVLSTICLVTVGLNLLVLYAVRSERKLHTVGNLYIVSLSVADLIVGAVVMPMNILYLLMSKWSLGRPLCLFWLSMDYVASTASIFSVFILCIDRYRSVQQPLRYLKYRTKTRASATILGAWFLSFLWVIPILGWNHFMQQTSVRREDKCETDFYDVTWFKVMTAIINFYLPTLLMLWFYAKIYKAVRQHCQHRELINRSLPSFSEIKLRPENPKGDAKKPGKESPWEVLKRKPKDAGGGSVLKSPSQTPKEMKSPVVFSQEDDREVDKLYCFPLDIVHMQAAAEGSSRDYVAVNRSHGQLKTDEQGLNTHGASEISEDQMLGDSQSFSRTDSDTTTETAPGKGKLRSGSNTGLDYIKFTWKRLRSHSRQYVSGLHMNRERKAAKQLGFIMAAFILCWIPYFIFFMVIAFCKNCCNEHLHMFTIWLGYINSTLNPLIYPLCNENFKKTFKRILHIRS

First: NC(=O)N(O)CCC#Cc1ccc(OCCCN2CCN(C(c3ccc(F)cc3)c3ccc(F)cc3)CC2)cc1
Second: NC(=O)N(O)CCC#Cc1ccc(OCCCCN2CCN(C(c3ccc(F)cc3)c3ccc(F)cc3)CC2)cc1
The Ki of the first is 4.2-fold higher: 0.109 µM for the first, 0.026 µM for the second. The second binds more tightly here.

`NC(=O)N(O)CCC#Cc1ccc(OCCN2CCC(=C3c4ccc(Cl)cc4CCc4cccnc43)CC2)cc1` and `NC(=O)N(O)CCC#Cc1ccc(OCCCN2CCC(=C3c4ccc(Cl)cc4CCc4cccnc43)CC2)cc1` are within 1.5-fold of each other in Ki: 0.019 µM for the first, 0.014 µM for the second.

Compared with `NC(=O)N(O)CCC#Cc1ccc(OCCCCN2CCN([C@H](c3ccccc3)c3ccc(Cl)cc3)CC2)cc1`, `NC(=O)N(O)CCC#Cc1ccc(OCCCN2CCN([C@H](c3ccccc3)c3ccc(Cl)cc3)CC2)cc1` is 3.3-fold lower in Ki: 0.03 µM for the first, 0.009 µM for the second. The second binds more tightly here.

`NC(=O)N(O)CCC#Cc1ccc(OCCN2CCN(C(c3ccc(F)cc3)c3ccc(F)cc3)CC2)cc1` and `NC(=O)N(O)CCC#Cc1ccc(OCCN2CCN([C@H](c3ccccc3)c3ccc(Cl)cc3)CC2)cc1` are within 1.5-fold of each other in Ki: 0.295 µM for the first, 0.305 µM for the second.

In the case of `NC(=O)N(O)CCC#Cc1ccc(OCCCCN2CCC(=C3c4ccc(Cl)cc4CCc4cccnc43)CC2)cc1`, the Ki is reported as 0.05 µM.

From ChEMBL document CHEMBL1137052 (Bioorg Med Chem Lett, 2004)
